Results published in patent US6342514B1, “Compositions and methods for treating bone deficit conditions” (ZymoGenetics, Inc., priority 1996, dated 2002).

System: TMC-23 mouse clonal chondrogenic cell line
Experiment: Chondrogenic activity: alkaline phosphatase (ALP) activity in TMC-23 cells
Assay type: cell-based
Settings: compared to vehicle control
Method: Compounds 59-008, 59-0102 and 50-0197 were assayed for effects on the differentiation of cartilage cells, as compared to the action of recombinant human BMP-2. Briefly, a mouse clonal chondrogenic cell line, TMC-23, was isolated and cloned from costal cartilage of transgenic mice containing the BMP-2 gene control region driving SV-40 large T-antigen, generated as described in Ghosh-Choudhury et al Endocrinology 137:331-39, 1996.
For measurement of alkaline phosphatase (ALP) activity, the technique of LF Bonewald et al. J Biol Chem (1992) 267:8943-49, was employed. Briefly, TMC-23 cells were plated in 96 well microtiter plates in DMEM containing 10% FCS at 4×10^3 cells/well. Two days after plating, the cells were confluent and the medium was replaced with fresh medium containing 10% FCS and different concentrations of compounds or recombinant BMP-2. After an additional 2 or 5 days incubation, the plates were washed twice with PBS, and then lysing solution (0.05% Triton X-100) was added (100 μl/well). The cells were lysed by three freeze-thaw cycles of −70° C. (30 min), followed by 37° C. (30 min with shaking). Twenty microliters of cell lysates were assayed with 80 μl of 5 mM p-nitrophenol phosphate in 1.5 M 2-amino-2-methyl-propanol buffer, pH 10.3 (Sigma ALP kit, Sigma Chemical Co., St. Louis, Mo.) for 10 min at 37° C. The reaction was stopped by the addition of 100 μl of 0.5 M NaOH. The spectrophotometric absorbance at 405 nm was compared to that of p-nitrophenol standards to estimate ALP activity in the samples. The protein content of the cell lysates was determined by the Bio-Rad protein assay kit (Bio-Rad, Hercules, Calif.). Specific activity was calculated using these two parameters.

Recombinant BMP2: recombinant human bone morphogenetic protein 2, comparator in the ALP assay
induction of ALP levels (10 ng/ml): ~1.5 fold | induction of ALP levels (50 ng/ml): ~4 fold | induction of ALP levels (100 ng/ml): approximately 10 fold
